Earlier results in patent US20040122083A1, “Antitubulin assembly and cell growth inhibitor denominated "dioxostatin"” (priority 2003, published 2004).
pIC50: −log10 of the molar value.

Sequences of proteins named here, by UniProt entry; tags and fusion partners are left off.
UniProt P02550, whole entry: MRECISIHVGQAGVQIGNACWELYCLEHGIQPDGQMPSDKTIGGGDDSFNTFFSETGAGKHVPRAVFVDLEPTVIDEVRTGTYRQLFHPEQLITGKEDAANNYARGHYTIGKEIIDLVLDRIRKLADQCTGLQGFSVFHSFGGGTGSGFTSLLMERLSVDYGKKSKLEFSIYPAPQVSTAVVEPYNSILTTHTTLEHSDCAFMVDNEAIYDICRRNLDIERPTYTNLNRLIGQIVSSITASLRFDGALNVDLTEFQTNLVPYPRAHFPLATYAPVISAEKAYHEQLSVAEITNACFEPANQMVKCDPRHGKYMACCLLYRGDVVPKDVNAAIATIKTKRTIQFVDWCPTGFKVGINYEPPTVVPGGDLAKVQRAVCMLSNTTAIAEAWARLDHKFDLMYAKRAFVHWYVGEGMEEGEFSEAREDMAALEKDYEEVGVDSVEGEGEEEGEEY
UniProt P02554, whole entry: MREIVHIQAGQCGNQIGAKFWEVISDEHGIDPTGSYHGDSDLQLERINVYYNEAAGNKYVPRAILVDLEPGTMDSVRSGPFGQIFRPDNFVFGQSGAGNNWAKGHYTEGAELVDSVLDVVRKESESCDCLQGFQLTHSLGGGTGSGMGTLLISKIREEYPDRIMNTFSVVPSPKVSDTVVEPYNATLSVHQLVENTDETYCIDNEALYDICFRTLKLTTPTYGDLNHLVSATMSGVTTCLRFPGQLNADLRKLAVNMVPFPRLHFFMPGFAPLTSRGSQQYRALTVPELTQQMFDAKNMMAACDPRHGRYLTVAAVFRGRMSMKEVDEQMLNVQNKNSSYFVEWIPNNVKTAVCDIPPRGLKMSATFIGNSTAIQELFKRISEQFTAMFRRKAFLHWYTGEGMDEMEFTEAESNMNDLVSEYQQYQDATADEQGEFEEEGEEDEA

Legend:
porcine brain tubulin = porcine brain tubulin (Sus scrofa, UniProt P02550+P02554); details: read-out: inhibition of porcine brain tubulin polymerization IC50; Shirai and co-workers; cited from earlier work
PC-6 = details: cited from earlier work
[1] = test system: PC-12 (multidrug resistant); details: cited from earlier work

| SMILES | pIC50 (porcine brain tubulin) | GI50, in vitro growth of PC-6 (PC-6) [ng/mL] | GI50, in vitro growth of PC-12 [1] [ng/mL] |
| --- | --- | --- | --- |
| COc1ccc([C@H]2OCO[C@@H]2c2cc(OC)c(OC)c(OC)c2)cc1O | < 4.30 | – | – |
| COc1ccc([C@@H]2OCO[C@H]2c2cc(OC)c(OC)c(OC)c2)cc1O | – | 2 | 2 |
